Measurements: PMC12711630 (Cell Reports. Physical Science, 2025)

Protein sequences, listed by entry. Tags and fused reporters are not part of them. Residues count along the entry.
UniProt P36544, 23-502 limits assumed: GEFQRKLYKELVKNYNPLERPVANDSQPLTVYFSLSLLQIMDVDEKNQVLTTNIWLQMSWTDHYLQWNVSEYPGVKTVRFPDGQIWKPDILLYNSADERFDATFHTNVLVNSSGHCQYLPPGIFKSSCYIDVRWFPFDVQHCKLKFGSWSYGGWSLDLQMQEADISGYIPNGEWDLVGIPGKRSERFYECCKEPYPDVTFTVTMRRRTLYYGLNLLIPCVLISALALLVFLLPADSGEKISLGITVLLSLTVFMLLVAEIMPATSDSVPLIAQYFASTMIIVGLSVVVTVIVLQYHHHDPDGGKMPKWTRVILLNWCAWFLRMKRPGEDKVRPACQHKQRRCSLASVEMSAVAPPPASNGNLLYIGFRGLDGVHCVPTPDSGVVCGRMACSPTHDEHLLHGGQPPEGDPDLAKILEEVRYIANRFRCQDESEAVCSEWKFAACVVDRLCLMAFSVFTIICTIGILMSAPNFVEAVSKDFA

Biological target: human α7 nAChR (Homo sapiens, UniProt P36544)
Test: [125I]α-Bgtx radioligand binding (saturation and competition), membranes of transfected SH-SY5Y cells

Q: Which Ki does the source give for `c1cnc2cc3c(cc2n1)[C@@H]1CNC[C@H]3C1` [Varenicline 1, varenicline, reference compound] here?
A: 75 nM
